From US20060079453A1, “Hla binding peptides and their uses” (priority 2002, published 2006)

Tests used:
Experiment in all cases: biochemical
Type in all cases: binding
HLA-A*0202 = HLA-A*0202 (Homo sapiens, UniProt P04439, D140Y/D185E/D98H/E176V/E277Q/G131W/G231S/I119L/I121R/I166T/I218V/L180W/L300P/L318F/N151K/N90K/P208A/P217A/Q67R/Q86G/Q94H/R138H/R169H/T345S)
HLA-A*0206 = HLA-A*0206 (Homo sapiens, UniProt P04439, D140Y/D185E/D98H/E176V/E277Q/F33Y/G131W/G231S/I119V/I121R/I166T/I218V/L300P/L318F/N151K/N90K/P208A/P217A/Q86G/Q94H/R138H/R169H/T345S)
HLA-A*6802 = HLA-A*6802 (Homo sapiens, UniProt P04439, A269V/D140Y/D185E/E176V/E277Q/E87N/F33Y/G231S/I121R/I166T/I218V/L180W/L300P/L318F/N151K/P208A/P217A/Q86R/R138H/R169H/S129P/T345S/V36M)
HLA-B*1801 = HLA-B*1801 (Homo sapiens, UniProt P01889, A329T/A93T/A95T/C349S/D201E/D54G/D98Y/E176V/E187T/E204Q/E69T/K202T/Q94N/R155S/R180L/S121R/V306I/Y140S/Y195H/Y33H/Y91S)
HLA-B*4001 = HLA-B*4001 (Homo sapiens, UniProt P01889, A65T/A93T/A95T/D138N/D98Y/E176V/E69K/N87E/Q56L/Q94N/R180L/S121R/S35A/S48T/T167S/V36M/W171L/Y33H/Y91S)
HLA-B*4002 = HLA-B*4002 (Homo sapiens, UniProt P01889, A65T/A93T/A95T/D138N/D201E/D98Y/E176V/E204Q/E69K/K202T/N87E/Q56L/Q94N/R180L/S48T/Y33H/Y91S)
HLA-B*4402 = HLA-B*4402 (Homo sapiens, UniProt P01889, A223V/A65T/A93T/A95T/D201E/D98Y/E176V/E187L/E204Q/E69K/G107R/H137Y/K202T/L105A/L119I/N104T/N87E/Q56L/Q94N/R106L/R155S/R180D/S101N/S121R/S35A/S48T/T118I/V36M/W191S/Y140D/Y91S)
HLA-B*4403 = HLA-B*4403 (Homo sapiens, UniProt P01889, A223V/A65T/A93T/A95T/D201E/D98Y/E176V/E187L/E204Q/E69K/G107R/H137Y/K202T/L105A/L119I/N104T/N87E/Q56L/Q94N/R106L/R155S/R180L/S101N/S121R/S35A/S48T/T118I/V36M/W191S/Y140D/Y91S)
HLA-B*4501 = HLA-B*4501 (Homo sapiens, UniProt P01889, A329T/A65T/A93T/A95T/C349S/D138N/D201E/D98Y/E176V/E187L/E204Q/E69K/H137Y/K202T/L119W/N87E/Q56L/Q94N/R155S/R180D/S121R/S35A/S48T/V127L/V306I/V36M/W191S/Y140L/Y33H/Y91S)

CC(C)C[C@H](NC(=O)[C@H](C)N)C(=O)N[C@@H](CCC(=O)O)C(=O)N[C@@H](CCC(=O)O)C(=O)N[C@@H](CCC(=O)O)C(=O)N[C@@H](CCC(=O)O)C(=O)N[C@H](C(=O)NCC(=O)N[C@@H](Cc1ccccc1)C(=O)N1CCC[C@H]1C(=O)N[C@H](C(=O)O)C(C)C)C(C)C
IC50 (HLA-A*0202): 0.487 µM | IC50 (HLA-A*0206): 2.99 µM | IC50 (HLA-A*6802): > 13.8 µM

CC(C)[C@H](NC(=O)[C@@H]1CCCN1C(=O)[C@H](Cc1ccccc1)NC(=O)CNC(=O)[C@@H](NC(=O)[C@H](CCC(=O)O)NC(=O)[C@H](CCC(=O)O)NC(=O)[C@@H](N)CC(=O)O)C(C)C)C(=O)O
IC50 (HLA-B*1801): 0.0071 µM | IC50 (HLA-B*4001): > 32 µM | IC50 (HLA-B*4002): 4.26 µM | IC50 (HLA-B*4402): 9.31 µM | IC50 (HLA-B*4403): > 10.5 µM | IC50 (HLA-B*4501): 0.916 µM

CC(C)[C@H](NC(=O)[C@@H]1CCCN1C(=O)[C@H](Cc1ccccc1)NC(=O)CNC(=O)[C@@H](NC(=O)[C@H](CCC(=O)O)NC(=O)[C@H](CCC(=O)O)NC(=O)[C@H](CCC(=O)O)NC(=O)[C@@H](N)CCC(=O)O)C(C)C)C(=O)O
IC50 (HLA-B*1801): 3.69 µM | IC50 (HLA-B*4001): 3.34 µM | IC50 (HLA-B*4402): 7.44 µM | IC50 (HLA-B*4501): 0.037 µM

CC(C)[C@H](NC(=O)[C@@H]1CCCN1C(=O)[C@H](Cc1ccccc1)NC(=O)CNC(=O)[C@@H](NC(=O)[C@H](CCC(=O)O)NC(=O)[C@H](CCC(=O)O)NC(=O)[C@@H](N)CCC(=O)O)C(C)C)C(=O)O
IC50 (HLA-B*4001): 9.58 µM | IC50 (HLA-B*4002): 2.61 µM | IC50 (HLA-B*4402): 6.37 µM | IC50 (HLA-B*4403): > 10.5 µM

CC(C)[C@H](NC(=O)[C@H](CCC(N)=O)NC(=O)[C@@H]1CCCN1C(=O)[C@H](CCCNC(=N)N)NC(=O)[C@@H](NC(=O)[C@@H]1CCCN1C(=O)[C@H](Cc1ccccc1)NC(=O)CNC(=O)[C@@H](NC(=O)[C@H](CCC(=O)O)NC(=O)[C@@H](N)CCC(=O)O)C(C)C)C(C)C)C(=O)O
IC50 (HLA-B*1801): > 22.8 µM | IC50 (HLA-B*4001): 9.9 µM | IC50 (HLA-B*4002): 0.108 µM | IC50 (HLA-B*4402): 23.8 µM | IC50 (HLA-B*4403): 6.55 µM | IC50 (HLA-B*4501): 0.808 µM

CC(C)[C@H](NC(=O)[C@@H]1CCCN1C(=O)[C@H](Cc1ccccc1)NC(=O)CNC(=O)[C@@H](NC(=O)[C@H](CCC(=O)O)NC(=O)[C@H](CCC(=O)O)NC(=O)[C@H](CCC(=O)O)NC(=O)[C@H](CCC(=O)O)NC(=O)[C@@H](N)CCC(N)=O)C(C)C)C(=O)O
IC50 (HLA-B*1801): > 8.61 µM | IC50 (HLA-B*4001): 13.1 µM | IC50 (HLA-B*4002): 2.6 µM | IC50 (HLA-B*4402): 15.2 µM | IC50 (HLA-B*4403): > 11.4 µM | IC50 (HLA-B*4501): 0.086 µM
